The values below come from PubChem BioAssay AID1813 (Broad Institute, 2009).

Molecules are shown by their SMILES. The list shows a part of the results, in another mix than the full data. Some tests of the compounds listed are not included; inactive here does not mean inactive elsewhere. The source made the active and inactive calls. No stated cut-off is given here; in the data, active means inhibition above about 60%; inconclusive means no clear call, values can overlap the other calls; inactive means below that.

By inhibition is commonly meant the change of the read-out against control, counted positive when it falls.

A short description of this experiment: MLPCN primary screen, SNCA 5' untranslated region (AID 1813).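 Further: H4 neuroglioblastoma cells stably carrying SNCA 5'UTR luciferase fusion; 0% = DMSO wells and 100% = positive control.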 The settings on record: alpha-synuclein 5'UTR reporter, inhibitor activity; active compounds read high; tested at 7.5 µM.
With `COc1ccc(Cl)cc1C(=O)NCC1(N(C)C)CCCCC1`, the inhibition was inactive: -10.1%.

For the compound `COc1cccc(C(=O)NCC2(N3CCCCC3)CCCCC2)c1`, the inhibition was inactive: -4.77%.

In the case of `O=C(NCC1(N2CCCCC2)CCCCC1)c1cccc(Cl)c1`, the inhibition is inactive: -30.7%.

In the case of `CN(C)C1(CNC(=O)c2ccc(Br)cc2)CCCCC1`, the inhibition was inactive: -7.79%.

Turning to `COc1cc(C(=O)NCC2(N(C)C)CCCCC2)c([N+](=O)[O-])cc1OC`, the inhibition is inactive: 1.96%.

As to `COc1ccc(Br)c(C(=O)NCC2(N3CCCCC3)CCCCC2)c1`, the inhibition is inactive: 1.47%.

Regarding `CC(C)Oc1ccc(C(=O)NCC2(N(C)C)CCCCC2)cc1`, the inhibition is inactive: 0.971%.

As to `CN(C)c1cccc(C(=O)NCC2(N(C)C)CCCCC2)c1`, the inhibition was inactive: -27.4%.

Regarding `O=C(OC1CN2CCC1CC2)C(CO)(c1ccccc1)c1ccccc1` (centres undefined), the inhibition is inactive: -25.4%.

With `COc1cc(SC)ccc1C(=O)NCC1(N(C)C)CCCCC1`, the inhibition was inactive: -1.62%.

Consider `CCN(CC)CC(C)C(C)OC(=O)C(O)(c1ccccc1)c1ccccc1` (centres undefined), for which the inhibition was inactive: 15.5%.

For the compound `CC(C)N1C(=O)CC2(CCN(CCOC(=O)C(O)(c3ccccc3)c3ccccc3)CC2)C1=O`, the inhibition is inactive: 8.55%.

For the compound `Cc1ccc(C(=O)NCC2(N3CCCCC3)CCCCC2)cc1`, the inhibition was inactive: -7.83%.

As to `O=C(NCC1(N2CCCCC2)CCCCC1)c1cc([N+](=O)[O-])ccc1Cl`, the inhibition was inactive: -10.7%.

As to `CN1[C@@H]2CC[C@H]1CC(OC(=O)C(O)(c1ccccc1)c1ccccc1)C2` (some centres undefined), the inhibition is inactive: 7.72%.

Regarding `O=C(NCC1(N2CCCCC2)CCCCC1)c1cc(F)c(F)cc1Cl`, the inhibition was inactive: 11.8%.

`C=CCN1CCN(CCOC(=O)C(O)(c2ccccc2)c2ccccc2)CC1`: the inhibition was inactive: -25.5%.

Regarding `COc1ccc(C(=O)NCC2(N(C)C)CCCCC2)cc1`, the inhibition was inactive: 1.51%.

As to `O=C(NCC1(N2CCCCC2)CCCCC1)c1cccc(Br)c1`, the inhibition is inactive: -12.7%.

`Cc1cc(C(=O)NCC2(N3CCCCC3)CCCCC2)ccc1[N+](=O)[O-]`: the inhibition is inactive: -27%.

For `CCN1CCCC(OC(=O)C2(O)c3ccccc3C=Cc3ccccc32)C1` (centres undefined), the inhibition was inactive: 5.69%.

For `CN(C)C1CCCC1OC(=O)C(O)(c1ccccc1)c1ccccc1` (centres undefined), the inhibition is inactive: 0.783%.

`CN(C)c1ccc(C(=O)NCC2(N(C)C)CCCCC2)cc1`: the inhibition was inactive: 2.32%.

Turning to `Cc1ccccc1C(=O)NCC1(N2CCCCC2)CCCCC1`, the inhibition was inactive: 3.21%.
